The values below are quoted from earlier work in patent US20240293585A1, “HIGH MOLECULAR WEIGHT ZWITTERION-CONTAINING POLYMERS” (Kodiak Sciences Inc., priority 0001, published 2024).

The conditions of series [1]: for half life after intravenous administration / half life after subcutaneous administration: species not restated (monkeys in preceding sentence), 'can demonstrate'.
The conditions of series [2]: route not stated.
The conditions of series [3]: mouse.

With “Avonex: Interferon beta (approximately 20 kDa), an unPEGylated form”, the “half-life after intramuscular injection” value in series [1] (monkey, intramuscular) was 10 h. Besides, the “mean terminal half life in monkeys after intravenous injection” value in series [1] (monkey, intravenous) is 5.5 h.

“Pegasys: recombinant interferon alfa of approximately 19.5 kDa PEGylated with a 40 kDa branched PEG”: the human half life in series [2] was roughly 80 h. Besides, the “murine elimination half life after subcutaneous injection” value in series [3] is “approximately 50 hours”.

As to “Interferon beta 40 kDa linear PEG: Interferon beta conjugated with a 40 kDa linear PEG polymer”, the “half life after intravenous administration” value in series [1] (intravenous) is reported as “approximately fifteen”. For the same substance, the “half life after subcutaneous administration” value in series [1] is on record as “thirty”.

Consider “Interferon beta 40 kDa branched PEG: Interferon beta conjugated with a 40 kDa branched PEG polymer”, for which the “half life after intravenous administration” value in series [1] (intravenous) is recorded as “thirty”. Besides, the “half life after subcutaneous administration” value in series [1] is on record as “sixty”.
